# Apparent affinities of Ab-14 variants for a coronavirus HR2 peptide

Reference: Li et al. 2023, doi:10.1038/s41467-023-39022-2. File: FLAb, binding data.

The target is the same throughout: PDVDLGDISGINAS, from the HR2 region of SARS-CoV-2 spike.

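The starting antibody came from a phage panning campaign against this peptide. This is the validation round: designs drawn from the data on random variants, tested in the same kind of assay. Their group label is 14L_En_Gibbs (En: ensemble of fine-tuned language models; Gibbs: Gibbs sampling). The scFvs were displayed on barcoded MATa yeast, the peptide on MATalpha yeast. Binding brings cells together so that they mate, and sequencing counts the barcode pairs among the diploids. Scores were corrected for input abundance and mapped to Kd with protein pairs of known affinity run in the same pool. The assay was run in six technical replicates.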

Ab-14 is the parent antibody, in scFv form: VH, then a 15-residue (Gly4Ser)3 linker, then VL. The heavy chain is unchanged in all variants.
VH: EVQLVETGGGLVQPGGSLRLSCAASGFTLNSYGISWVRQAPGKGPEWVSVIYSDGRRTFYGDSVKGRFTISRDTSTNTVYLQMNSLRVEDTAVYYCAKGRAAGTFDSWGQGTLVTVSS
VL: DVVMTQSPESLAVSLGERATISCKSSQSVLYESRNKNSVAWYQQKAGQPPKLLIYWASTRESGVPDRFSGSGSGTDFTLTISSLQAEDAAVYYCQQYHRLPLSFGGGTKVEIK

Variants are written as CDR1, CDR2 and CDR3 of the light chain (limits as in the source). Parent: KSSQSVLYESRNKNSVA, WASTRES, QQYHRLPLS.
Values are log10 of the apparent Kd in nM; lower means stronger binding.
The mean shown is taken over the replicates in which the pair was detected.
"ND" means that the variant was in the library but no mating with the target was seen in that replicate; the authors take this as a sign of poor binding, and no number exists.
Of ten entries with the parent sequence, four were seen in most replicates (averages 0.34 to 2.37), three in one and three in none, so single entries are noisy.
Three control strains display no target. For all light chain designs, 4% of the pairings with them gave a signal, with a median of 2.64 and one signal in twenty below 1.59, so weak values seen in few replicates may be background. For each scFv, signals with the empty controls are counted beside the result, with their mean in brackets.
Values of this round are not directly comparable with the first-round values of the same sequences.
The authors averaged sequences with at least three values out of six and counted those with two or fewer as poor binders.

{"CDR-L1": "AFTNSIFYGQRDDNSIA", "CDR-L2": "HADELEK", "CDR-L3": "QQYFRFPLA", "log10 Kd (nM) by replicate": "2.72 1.89 ND 1.72 2.13 1.99", "mean, log10 nM": "2.09", "signal with controls": "0 of 18"}
{"CDR-L1": "VFQDQWDGHTDTHNSVA", "CDR-L2": "NVDEKME", "CDR-L3": "QQYYRLPLL", "log10 Kd (nM) by replicate": "-0.02 -0.17 -0.07 -0.18 -0.22 0.04", "mean, log10 nM": "-0.11", "signal with controls": "0 of 18"}
{"CDR-L1": "KITFQGMLSDAHQYSIA", "CDR-L2": "QTNVYSQ", "CDR-L3": "QQYDRLPLD", "log10 Kd (nM) by replicate": "ND ND 2.57 ND ND ND", "mean, log10 nM": "2.57", "signal with controls": "0 of 18"}
{"CDR-L1": "KLDQKNRWNGMANYNVA", "CDR-L2": "DSNTRVD", "CDR-L3": "QQYHRLPLI", "log10 Kd (nM) by replicate": "0.64 0.22 0.23 0.18 0.16 0.33", "mean, log10 nM": "0.29", "signal with controls": "1 of 18 (3.07)"}
{"CDR-L1": "QLGKNQVGETLMQHAIA", "CDR-L2": "HDALRVD", "CDR-L3": "QQYFRLPLL", "log10 Kd (nM) by replicate": "1.16 0.17 0.66 1.27 0.93 0.26", "mean, log10 nM": "0.74", "signal with controls": "0 of 18"}
{"CDR-L1": "TLHANIEYGGGMWSSIA", "CDR-L2": "DNVQRAD", "CDR-L3": "QYYQRLPLG", "log10 Kd (nM) by replicate": "1.39 1.69 1.37 2.49 1.10 1.50", "mean, log10 nM": "1.59", "signal with controls": "0 of 18"}
{"CDR-L1": "KFFGGIPEQERDDYSIA", "CDR-L2": "KGTLRED", "CDR-L3": "QQYQRLPLS", "log10 Kd (nM) by replicate": "0.72 0.48 0.29 0.01 0.09 0.48", "mean, log10 nM": "0.35", "signal with controls": "1 of 18 (3.67)"}
{"CDR-L1": "KLVGPDDNDNQDMRAVA", "CDR-L2": "DENTLGN", "CDR-L3": "QQYHRLPLG", "log10 Kd (nM) by replicate": "1.02 1.27 1.42 3.38 1.17 1.39", "mean, log10 nM": "1.61", "signal with controls": "0 of 18"}
{"CDR-L1": "FLTYQQDQTGLQRNAIA", "CDR-L2": "QVNLKEN", "CDR-L3": "QQYGRLPFA", "log10 Kd (nM) by replicate": "ND ND ND ND ND 1.53", "mean, log10 nM": "1.53", "signal with controls": "0 of 18"}
{"CDR-L1": "KLMNQMGGIEQMKNSIA", "CDR-L2": "NLEIGAR", "CDR-L3": "QQYAHLPLV", "log10 Kd (nM) by replicate": "ND ND ND ND ND ND", "mean, log10 nM": "ND", "signal with controls": "0 of 18"}
{"CDR-L1": "TLLTGVTENAKNGKAIA", "CDR-L2": "NNEEKAQ", "CDR-L3": "QQYFRLPFS", "log10 Kd (nM) by replicate": "0.20 -0.13 -0.15 -0.42 -0.12 -0.03", "mean, log10 nM": "-0.11", "signal with controls": "0 of 18"}
{"CDR-L1": "FLTYQQDQTGLQYNAIA", "CDR-L2": "QVNLKEN", "CDR-L3": "QQYGRLPFA", "log10 Kd (nM) by replicate": "ND ND ND ND ND ND", "mean, log10 nM": "ND", "signal with controls": "0 of 18"}
{"CDR-L1": "KLSWKSLYGETRWSAIA", "CDR-L2": "NTKVRLA", "CDR-L3": "QQYFRLPIQ", "log10 Kd (nM) by replicate": "1.21 1.14 0.81 1.39 1.01 1.27", "mean, log10 nM": "1.14", "signal with controls": "1 of 18 (2.86)"}
{"CDR-L1": "HIELGTWGVQKYDSSVA", "CDR-L2": "HASQRQE", "CDR-L3": "QQYGQLPLT", "log10 Kd (nM) by replicate": "1.42 0.32 -0.08 0.33 0.06 0.68", "mean, log10 nM": "0.45", "signal with controls": "0 of 18"}
{"CDR-L1": "RISMQFTWPGNARQNVA", "CDR-L2": "EIQKAID", "CDR-L3": "QQYAHLPLS", "log10 Kd (nM) by replicate": "ND ND ND 2.31 1.97 2.33", "mean, log10 nM": "2.20", "signal with controls": "0 of 18"}
{"CDR-L1": "KLDMNELGQSQLSSSVA", "CDR-L2": "GSANKCQ", "CDR-L3": "QQYFRLPLS", "log10 Kd (nM) by replicate": "0.29 0.56 0.55 0.20 -0.29 0.14", "mean, log10 nM": "0.24", "signal with controls": "1 of 18 (2.88)"}
{"CDR-L1": "ILSDTAVNQYDEADNIA", "CDR-L2": "DKTETSV", "CDR-L3": "QQYARLPLS", "log10 Kd (nM) by replicate": "1.95 2.32 0.81 1.66 2.66 0.90", "mean, log10 nM": "1.71", "signal with controls": "0 of 18"}
{"CDR-L1": "MINMEVGIEDMKWSSVA", "CDR-L2": "SAHVRAF", "CDR-L3": "QQYGRLPFS", "log10 Kd (nM) by replicate": "2.82 1.53 1.98 1.92 2.00 2.31", "mean, log10 nM": "2.09", "signal with controls": "1 of 18 (2.98)"}
{"CDR-L1": "QIAMEMYHGLNDAQNVA", "CDR-L2": "DAMTCIK", "CDR-L3": "QQYSRLPLF", "log10 Kd (nM) by replicate": "ND ND ND ND ND ND", "mean, log10 nM": "ND", "signal with controls": "0 of 18"}
{"CDR-L1": "HITDLMYNNNEGEKNIA", "CDR-L2": "DKNISVM", "CDR-L3": "QQYFRLPLS", "log10 Kd (nM) by replicate": "ND 2.19 ND ND ND ND", "mean, log10 nM": "2.19", "signal with controls": "0 of 18"}
{"CDR-L1": "KFAYGLDYNNAHKSAVA", "CDR-L2": "HADIRVI", "CDR-L3": "QQYFRLPLD", "log10 Kd (nM) by replicate": "ND ND ND ND ND ND", "mean, log10 nM": "ND", "signal with controls": "1 of 18 (0.91)"}
{"CDR-L1": "MIFYGQERDIAHENSIA", "CDR-L2": "NDHEVSK", "CDR-L3": "QQYYRLPLT", "log10 Kd (nM) by replicate": "1.46 2.05 1.31 2.07 2.50 1.46", "mean, log10 nM": "1.81", "signal with controls": "1 of 18 (2.58)"}

For reference, 2 entries of the list once more:

{"CDR-L1": "MINMEVGIEDMKWSSVA", "CDR-L2": "SAHVRAF", "CDR-L3": "QQYGRLPFS", "log10 Kd (nM) by replicate": "2.82 1.53 1.98 1.92 2.00 2.31", "mean, log10 nM": "2.09", "signal with controls": "1 of 18 (2.98)"}
{"CDR-L1": "KFFGGIPEQERDDYSIA", "CDR-L2": "KGTLRED", "CDR-L3": "QQYQRLPLS", "log10 Kd (nM) by replicate": "0.72 0.48 0.29 0.01 0.09 0.48", "mean, log10 nM": "0.35", "signal with controls": "1 of 18 (3.67)"}